# Results reported in patent publication US5928859A, “Detection and biodegradation of explosives” (dated 1999).
# The chains behind the UniProt entries cited, without tags or fusion partners. Residues count along the entry.
# UniProt P71278, 2-365 limits assumed: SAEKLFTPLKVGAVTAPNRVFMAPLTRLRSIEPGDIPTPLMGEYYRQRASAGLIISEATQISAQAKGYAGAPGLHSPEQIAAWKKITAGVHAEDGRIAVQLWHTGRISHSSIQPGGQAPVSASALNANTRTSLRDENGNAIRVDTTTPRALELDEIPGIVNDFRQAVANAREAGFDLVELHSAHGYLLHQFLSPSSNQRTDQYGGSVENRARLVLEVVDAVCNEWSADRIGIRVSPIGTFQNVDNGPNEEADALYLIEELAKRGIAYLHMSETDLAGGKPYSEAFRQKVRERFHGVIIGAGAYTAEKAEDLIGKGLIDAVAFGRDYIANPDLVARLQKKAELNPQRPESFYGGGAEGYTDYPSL
# Like-named read-outs stand apart in the source and are kept apart here.
# Tests used:
# PETN reductase [1] = target: T1, PETN reductase (Enterobacter cloacae, UniProt P71278); details: for substrate for PETN reductase: purified enzyme and NADPH
# PETN reductase [2] = target: T1, PETN reductase; assay: Apparent Km of PETN reductase for nitrate ester substrates; details: read-out: apparent Km for GTN; 50 mM phosphate buffer, pH 7.0, 0.2 mM NADPH; GTN 5 μM to 200 μM; one standard error
SMILES,liberation of nitrite by PETN reductase (PETN reductase [1]; in the presence of NADPH),Km (PETN reductase [2]) [µM],substrate for PETN reductase (PETN reductase [1]),substrate for PETN reductase (PETN reductase [1]; listed as pentaerythritol dinitrate)
O=[N+]([O-])OCC(CO[N+](=O)[O-])O[N+](=O)[O-],liberate nitrite,22,,
O=[N+]([O-])OCC(CO)(CO)CO[N+](=O)[O-],,,not a substrate,does not appear to be a substrate
